The assay has as its target Prothrombin (Rattus norvegicus, UniProt P18292). Nature of the assay: In vitro ability to inhibit the amidolytic activity of thrombin.

pKi: −log10 of the molar value.

`N/C(=N\O)N1CCC(CNC(=O)[C@@H]2CC[C@H]3CN(S(=O)(=O)Cc4ccccc4)CC(=O)N32)CC1` gave a pKi of 7.85.

One may read the pKi as the negative decadic logarithm of the Ki, by convention in mol/L. Low values mean a high Ki, high ones a low Ki.
